# AlphaSeq binding of Ab-14 heavy chain variants to a spike HR2 peptide

Data: MIT Lincoln Laboratory AlphaSeq set, Li et al. 2023, doi:10.1038/s41467-023-39022-2, as distributed in FLAb.

All variants were tested on one target, the spike HR2 peptide PDVDLGDISGINAS (SARS-CoV-2).

Ab-14 is the parent antibody, in scFv form: VH, then the linker GGGGSGGGGSGGGGS, then VL. The light chain is unchanged in all variants.
VH: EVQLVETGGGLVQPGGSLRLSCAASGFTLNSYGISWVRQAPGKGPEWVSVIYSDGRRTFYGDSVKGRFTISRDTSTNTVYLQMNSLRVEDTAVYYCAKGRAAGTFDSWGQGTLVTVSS
VL: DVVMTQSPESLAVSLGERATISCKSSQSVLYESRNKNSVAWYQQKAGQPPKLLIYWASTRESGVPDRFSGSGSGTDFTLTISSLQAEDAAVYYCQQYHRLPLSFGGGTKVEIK

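The variants were designed computationally from a first round of random CDR variants and then made and measured. Their group label is 14H_GPLM_Gibbs (GPLM: also part of the Gaussian process libraries; Gibbs: Gibbs sampling; a sequence that several methods proposed may carry one label only). The assay is AlphaSeq: two haploid yeast populations carry antibody and antigen on their surface. After mating in shaken culture at 30 °C for 16 h, diploids were selected and their barcode pairs sequenced. The ratio of observed to expected reads was calibrated, replicate by replicate, on BCL2-family standards whose Kd was known from biolayer interferometry. The assay was run in six technical replicates.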

Variants are written as CDR1, CDR2 and CDR3 of the heavy chain (limits as in the source). Parent: GFTLNSYGIS, VIYSDGRRTFYGDSVK, GRAAGTFDS.
Numbers give log10(Kd / nM), so 0 is 1 nM and 3 is 1 µM. Smaller is tighter.
An entry "n.d." has no value in the source: the pair was not observed among the diploids in that replicate. This suggests poor binding but is not conclusive.

CDR-H1 | CDR-H2 | CDR-H3 | replicates, log10 nM | signal with controls
GFSLNSYGIS | VIYADGRRTFYGDSVK | GQAAGTFDK | -0.02 / 0.03 / 0.01 / 0.05 / -0.09 / 0.17 | 1 of 18 (3.22)
GFQLNSYGIS | VIYSDGRRTFYSDSVK | GRQAGTFDS | 1.09 / 0.78 / 0.49 / 0.63 / 0.71 / 0.73 | 0 of 18
GFELNSYGIS | VIYSDGRRTFYGDSVK | GKTAGTFDK | 1.76 / 0.75 / 1.29 / 0.84 / 1.77 / 1.21 | 0 of 18
GFSLNSYGIS | VIYSDGRRTFYVDDVK | GRQAGTFDS | 0.41 / 0.32 / 0.41 / 0.39 / 0.06 / 0.37 | 0 of 18
GFELNSYGIS | VIYSDGRRTFYGDSVK | GLTAGTFDS | 0.62 / 0.56 / 0.39 / 0.94 / 0.79 / 0.63 | 1 of 18 (2.32)
GFSLNSYGIS | VIYSDGRRTFYVDSVK | GRHAGTFDS | 2.47 / n.d. / n.d. / 1.52 / 2.81 / 1.80 | 1 of 18 (2.71)
GFNLNSYGIS | VIYSDGRRTFYGDDVK | GRQAGTFDS | 0.86 / 0.47 / 0.44 / 0.43 / 0.68 / 0.66 | 2 of 18 (2.07)
GFSLNSYGIS | VIYSDGRRTFYGDSVK | GSAAGTFDK | -0.50 / -0.81 / -0.50 / -0.45 / -0.73 / 0.38 | 0 of 18
GFTLESYGIS | VIYSDGRRTFYGDSVK | GRNAGTFDS | 0.47 / 1.01 / n.d. / n.d. / n.d. / n.d. | 1 of 18 (-0.07)
GFELNSYGIS | VIYSDGKRTFYADSVK | GRQAGTFDS | 0.49 / 0.14 / 0.16 / 0.36 / -0.11 / 0.36 | 1 of 18 (1.94)
GFNLNSYGIS | VIYSDGRRTFYKDSVK | GQEAGTFDS | 0.26 / 0.77 / -0.02 / 0.22 / 0.22 / 0.61 | 0 of 18
GFTLESYGIS | VIYSDGRRTFYGDSVK | GQTAGTFDA | 1.01 / 0.13 / 0.55 / 0.49 / 0.65 / 0.40 | 0 of 18
GFTLNSYGIS | VIYSDGRRTFYGDSVK | GQNAGTFDT | n.d. / 0.98 / 1.03 / 0.94 / 0.54 / 1.18 | 0 of 18
GFTLNSYGIS | VIYSDGKRTFYSDSVK | GRQAGTFDS | 0.21 / 0.11 / 0.64 / 1.19 / 0.44 / 0.43 | 1 of 18 (1.71)
GFSLNEYGIS | VIYSDGRRTFYIDSVK | GNAAGTFDS | -0.21 / -0.56 / 0.12 / -0.99 / -0.46 / -0.36 | 0 of 18
GFELNSYGIS | VIYSDGKRTFYGDSVK | GQTAGTFDS | 0.29 / -0.07 / -0.31 / -0.24 / 0.13 / 0.34 | 0 of 18
GFNLNSYGIS | VIYSDGRRTFYVDSVK | GSAAGTFDS | 2.23 / 1.07 / 0.85 / 1.08 / 1.16 / 0.94 | 0 of 18
GFELNSYGIS | VIYSDGRRTFYSDSVK | GKQAGTFDS | 0.51 / 1.14 / n.d. / 0.97 / 0.49 / 0.74 | 0 of 18
GFDLNSYGIS | VIYSDGRRTFYGDSVK | GEAAGTFDF | 1.68 / 1.31 / 0.62 / 0.76 / 0.67 / -0.09 | 0 of 18
GFTLNSYGIS | VIYSDGQRTFYSDSVK | GREAGTFDS | 0.66 / 0.31 / -0.03 / -0.10 / -0.15 / 0.58 | 0 of 18
GFDLNSYGIS | VIYSDGRRTFYQDSVK | GQAAGTFDS | n.d. / -1.05 / -0.89 / n.d. / 1.47 / -1.10 | 0 of 18
HFSLNSYGIS | VIYSDGRRTFYADSVK | GNEAGTFDS | 0.13 / 0.14 / 0.05 / 0.00 / -0.07 / 0.73 | 0 of 18
GFNLNSYGIS | VIYSDGRRTFYIDSVK | GKTAGTFDS | 1.02 / 0.90 / 0.89 / 1.22 / 1.08 / 1.27 | 2 of 18 (2.91)
GFNLNSYGIS | VIYSDGRRTFYGDQVK | GNAAGTFDS | n.d. / 1.51 / 1.81 / 2.77 / 0.20 / 0.55 | 0 of 18
GFNLNSYGIS | VIYSDGRRTFYADSVK | GRQAGTFDT | 3.03 / 0.98 / 1.04 / 1.16 / 2.34 / 1.41 | 0 of 18
GFDLNSYGIS | VIYSDGRRTFYGDSVK | GRQAGSFDS | n.d. / n.d. / n.d. / n.d. / 0.77 / 1.81 | 0 of 18
GFSLNSYGIS | VIYSDGRRTFYGDSVK | GVAAGTFDT | 0.21 / 0.22 / 0.26 / -0.14 / -0.28 / 1.92 | 0 of 18
KFELNSYGIS | VIYSDGRRTFYGDSVK | GRTAGTFDS | 2.93 / 1.99 / 1.71 / 2.66 / 2.78 / 2.22 | 1 of 18 (3.58)
GFSLNSYGIS | VIYSDGRRTFYIDSVK | GTAAGTFDK | 1.04 / -0.15 / -0.13 / -0.04 / -0.10 / 0.20 | 0 of 18
GFELNSYGIS | VIYSDGRRTFYSDSVK | GRQAGTFDS | 0.02 / 0.21 / -0.06 / -0.01 / 0.37 / 0.26 | 0 of 18
GFELNSYGIS | VIYSDGRRTFYKDSVK | GQAAGTFDS | 0.96 / 1.15 / 0.44 / 0.55 / 0.42 / 0.85 | 0 of 18
GFELNMYGIS | VIYSDGRRTFYGDSVK | GRTAGTFDT | 0.92 / 0.78 / 1.59 / 0.48 / 0.50 / 0.79 | 0 of 18
GFSLNEYGIS | VIYSDGRRTFYHDSVK | GKAAGTFDS | 0.03 / -0.25 / n.d. / 1.63 / 0.98 / 0.48 | 0 of 18
GFELNSYGIS | VIYSDGRRTFYADSVK | GSTAGTFDS | 0.51 / -0.24 / -0.12 / 0.04 / 0.10 / -0.07 | 0 of 18
GFHLNSYGIS | VIYSDGRRTFYVDSVK | GRQAGTFDS | n.d. / n.d. / n.d. / n.d. / n.d. / n.d. | 0 of 18
GFTLESYGIS | VIYSDGRRTFYADSVK | GKAAGTFDK | 0.41 / 0.46 / 1.41 / 0.14 / 0.40 / 0.18 | 0 of 18

Empty control strains, which show no peptide, gave a signal in 1% of pairings with all heavy chain designs; the median was 2.08 and 95% of these signals were weaker than 0.84. No background was subtracted. The control count says in how many pairings with the empty strains this scFv gave a signal, with their mean in brackets.
The authors' rule: three or more of the six replicates give a measured affinity, fewer mean a poor binder.
Of ten entries with the parent sequence, four were seen in most replicates (averages 0.34 to 2.37), three in one and three in none, so single entries are noisy.
The range of this assay differs from that of the first round, and the authors advise against merging the two.